# Most compounds without a hit are left out; they make up all but 2.1% or so of the library.
# PDI turbidity – blocks human protein disulfide isomerase activity | PDI insulin aggregation turbidity, A650, 90 min | P07237 | AID 588391 | inhibition, % at 10 µM | actives 0.052% (n = 350,000);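 active means mean inhibition across replicates of 30% or more, whatever share of single replicates reach that level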
# ERp5 inh – inhibitors of human ERp5 | ERp5 insulin aggregation, absorbance 650 nm, 90 min | actives 0.05% (n = 350,000) | AID 651711 | inhibition, % at 9.99 µM | Q15084;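 active means mean replicate inhibition above about 25%, with every replicate also reaching it, limit read from the data, passing the limit was not always enough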
# UUG fidelity – modulators of start codon recognition fidelity in yeast; AID 602363; hit rate 0.13% among 350,000; activity score, % at 18.7 µM; S. cerevisiae UUG-firefly luciferase reporter, luminescence/redox ratio;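 active = replicate mean at a twofold rise or more, about +100% in these data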;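 note: firefly luciferase made from a UUG start codon reports start codon fidelity; reporter light over untreated wells divided by growth signal over untreated wells; some hits fall short of that in this replicate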
# INS-1E GSIS act – primary screen for activators of insulin secretion dependent on glucose, INS-1E cells, GLuc reporter luminescence. INS-1E GLuc reporter insulin secretion, 2-3 h. actives 0.61% (n = 370,000). activation, % at 16.6 µM;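 active means lowest replicate activation of at least 40%, so every replicate reaches that level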
# NR1D1 modulator – modulators of human Rev-erb alpha DNA binding; Rev-erbα–FITC-DNA binding, fluorescence polarization, 90 min; activity, % at 10 µM; actives 0.79% (n = 370,000);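 active means activity above about 14%, limit read from the data; passing the limit was not always enough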
# SMARCA2 activ – activators of SMARCA2 function; AID 652017; actives 1% (n = 370,000); activation, % at 9.1 µM; MG213 cells, MMTV-luciferase reporter, dexamethasone, overnight; in the data active means activation above about 7.8%
# SMARCA2 conf – confirmation of SMARCA2 (BRM) function activators. shares compounds with SMARCA2 activ. MG213 cells, MMTV-luciferase with dexamethasone, luminescence, overnight; MG213 cells expressing E1A, Rb sequestered; DMSO wells 0%, reference activator 100%. activation, % at 9.1 µM. actives 30% (n = 3,500);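 active means activation above its plate's cutoff, the mean activation of tested wells plus 3 SD, cut at about 7.9% in these data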
# VP16 Luc act – activates GAL4-VP16 luciferase, flagging SMARCA2 activator hits; shares compounds with SMARCA2 activ; HEK293 GAL4-VP16 pG5luc reporter, luciferase luminescence; scaled: DMSO wells 0%, SAHA wells 100%; activation, % at 9.1 µM; actives 41% (n = 3,500); AID 686939;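 active means activation above the solvent-only control well mean plus 3 SD, averaged across control plates, cut at about 5.2% in these data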
# A number is an active result; i = inactive; nt = not tested or not shown.
SMILES,PDI turbidity,ERp5 inh,UUG fidelity,INS-1E GSIS act,NR1D1 modulator,SMARCA2 activ,SMARCA2 conf,VP16 Luc act
COc1cc2c(C#CCCO)c(-c3ccsc3)oc(=O)c2cc1OC,i,i,i,i,i,9.3,11,i
CC(=O)N1CCn2c3ccc(C)cc3c3cccc1c32,i,nt,i,nt,i,8.4,i,i
CC(=O)N1CCN(C(C)=O)c2ccccc21,i,i,i,i,i,i,nt,nt
CCOc1ccc(NC(=O)C(c2ccccn2)N(C(=O)CCl)c2ccc(OC)cc2)cc1 (stereo not drawn),i,i,nt,i,i,9.7,i,i
Cc1ccc(S(=O)(=O)N[C@H]2C=C[C@@H](CC(=O)NC3CCCCC3)O[C@H]2CO)cc1,nt,i,i,i,nt,nt,nt,nt
O=C(OC1CCOC1=O)c1ccc2ncsc2c1 (stereo not drawn),i,nt,i,nt,i,12,i,i
CC1CCCCN1S(=O)(=O)c1ccc(S(=O)(=O)N2CCCC2)cc1 (stereo not drawn),i,i,i,i,i,8.9,i,i
COc1cccc2cc(-c3nc(-c4cccs4)cs3)c(=O)oc12,i,nt,i,nt,i,8.6,i,11
COCc1cc(C)nc(N/N=C/c2ccc(Cl)c(Cl)c2)c1C#N,i,i,nt,i,i,8.3,i,i
COCc1cc(C)nc(N/N=C/c2ccc(-c3cc(C(=O)O)ccc3Cl)o2)c1C#N,nt,i,nt,i,i,i,nt,nt
C[C@@H]1CCCCO[C@H](CN(C)Cc2ccc3c(c2)OCO3)[C@H](C)CN([C@H](C)CO)C(=O)c2cc(NC(=O)NC3CCCCC3)ccc2O1,nt,i,i,i,nt,nt,nt,nt
COC(=O)C1CCc2c(ccc3c2CCCC3)C1=O (stereo not drawn),i,i,i,i,i,11,i,8.5
CN(C)C(=O)C[C@H]1CC[C@H](NC(=O)C2CC2)[C@H](CO)O1,nt,i,i,i,nt,nt,nt,nt
COc1nc(=O)n(C2C=CC(=O)O2)cc1F (stereo not drawn),i,i,i,nt,i,15,23,5.7
C[C@@H]1CN([C@H](C)CO)C(=O)c2cc(NC(=O)CCC(F)(F)F)ccc2O[C@@H](C)CCCCO[C@H]1CN(C)C(=O)Cc1ccccc1,nt,nt,i,i,nt,nt,nt,nt
Cc1ccc(S(=O)(=O)N2CCOCC2)cc1C(=O)OCC(=O)c1c(N)n(C)c(=O)n(C)c1=O,i,i,i,nt,i,i,nt,nt
Cn1c(N)c(C(=O)COC(=O)c2cc(S(=O)(=O)N3CCOCC3)ccc2F)c(=O)n(C)c1=O,i,i,i,nt,i,37,9.9,i
Cc1ccc(S(=O)(=O)N2CCOCC2)cc1C(=O)OCC(=O)NC1CC1,i,i,i,i,i,9.3,i,i
O=C(Nc1ccc(F)cc1)c1ccc2[nH]c(=O)c(=O)[nH]c2c1,i,i,i,i,i,8.5,i,i
O=C(NNC(=O)c1ccccc1F)c1ccc2[nH]c(=O)c(=O)[nH]c2c1,i,i,i,i,i,i,nt,nt
C[C@H](CO)N1C[C@H](C)[C@@H](CN(C)C(=O)Cc2ccncc2)Oc2cc(C#CC3(O)CCCC3)ccc2S1(=O)=O,nt,nt,nt,i,nt,nt,nt,nt
CC1=C(C(=O)OCc2ccccc2)C(c2ccccc2)NC(=O)N1 (stereo not drawn),i,i,i,i,i,i,nt,nt
COc1ccc(C2NC(=O)NC(C)=C2C(=O)OCc2ccccc2)cc1 (stereo not drawn),i,i,i,i,i,14,i,i
Cc1cccc2c(N)c3c(nc12)CCCC3 (tested in a mixture with another compound),i,i,i,i,i,i,nt,nt
Cc1cc(C)c2c(N)c3cccc(C)c3nc2n1,i,i,nt,nt,i,28,347,6.1
SMILES,PDI turbidity,ERp5 inh,UUG fidelity,INS-1E GSIS act,NR1D1 modulator,SMARCA2 activ,SMARCA2 conf,VP16 Luc act
Cc1ccc(Cc2c(-c3ccc(Br)cc3)nc3cc(C)ccn23)cc1,i,i,i,i,i,8.2,i,i
Cc1ccc(Cc2c(-c3ccc(F)cc3)nc3cc(C)ccn23)cc1,i,i,i,nt,i,i,nt,nt
N#Cc1c(Nc2ccccc2Cl)s[nH]c1=O,i,i,nt,i,i,8.8,i,i
COc1ccccc1-c1nc(=S)c(C(C)=O)c(C)[nH]1,i,i,i,i,i,12,i,i
CC(=O)c1c(C)[nH]c(-c2ccccc2)nc1=S,i,i,i,i,i,11,i,i
COc1ccccc1-c1nc(NC(C)=O)n[nH]1,nt,nt,nt,nt,i,i,nt,nt
C[C@H](CO)N1C[C@H](C)[C@@H](CN(C)C(=O)NC2CCCCC2)Oc2ccc(NC(=O)C3CC3)cc2CC1=O,nt,i,i,i,nt,nt,nt,nt
CC(C)C#Cc1ccc2c(c1)O[C@H](CN(C)C)[C@H](C)CN([C@H](C)CO)S2(=O)=O,nt,nt,nt,i,nt,nt,nt,nt
O=C(O)c1ccccc1-c1noc(-c2ccccc2F)n1,nt,nt,nt,nt,i,nt,nt,nt
O=C(c1ccccc1)c1nnc(-c2ccccc2F)o1,i,nt,i,nt,i,11,i,i
O=C(c1cccc(NC2=NC3CS(=O)(=O)CC3S2)c1)N1CCN(c2ccc(F)cc2)CC1 (stereo not drawn),nt,i,i,i,i,8.2,i,i
CC(=Nc1ccc(Cl)cc1N)c1c(O)cc(C)oc1=O,nt,i,nt,i,i,9.0,i,15
CCC(=O)N1CC[C@@H]2[C@@H](CO)Nc3ccc(-c4ccccc4)cc3[C@@H]21,nt,nt,i,i,nt,nt,nt,nt
COc1ccc(OC)c(C2=Nn3c(nnc3C3CCCCC3)SC2)c1,i,nt,i,nt,i,i,nt,nt
CCOc1ccc(C2=Nn3c(nnc3-c3cccnc3)SC2)cc1,i,nt,i,nt,i,i,nt,nt
COc1ccc(-c2nn3c(C4CCCCC4)nnc3s2)cc1OC,i,nt,i,nt,i,12,i,i
COc1ccc(C2=Nn3c(nnc3-c3cccnc3)SC2)cc1,i,i,i,i,i,9.7,i,i
COc1ccc(C2=Nn3c(nnc3C3CCCCC3)SC2)cc1OC,i,nt,i,nt,i,14,14,7.3
COc1ccc(OC)c(-c2nnc3n2N=C(c2ccc(OC)c(OC)c2)CS3)c1,i,i,i,80,i,12,34,17
COc1cc(-c2nn3c(C4CCCCC4)nnc3s2)cc(OC)c1OC,i,nt,i,nt,i,i,nt,nt
COC(=O)C[C@H]1CC[C@H]2[C@@H](COC[C@@H](O)CN2C(=O)Nc2ccccc2OC)O1,nt,i,nt,i,nt,nt,nt,nt
COc1ccc(C2=Nn3c(nnc3-c3ccccc3F)SC2)cc1OC1CCCC1,i,i,i,i,i,17,30,20
Cc1ccc(S(=O)(=O)N(C)C[C@@H]2Oc3ccc(NS(=O)(=O)c4cn(C)cn4)cc3C(=O)N([C@@H](C)CO)C[C@@H]2C)cc1,nt,nt,nt,i,nt,nt,nt,nt
